Where a chain is given by its changes, count along the chain named.
Assays:
GDAP2 = molecular target: T1, GDAP2 (Homo sapiens, UniProt Q9NXN4); assay type: binding; details: to GDAP2; ITC at 30 °C; NB, nonbinding
T1 sequence (Q9NXN4 1-231 isoform Q9NXN4-2): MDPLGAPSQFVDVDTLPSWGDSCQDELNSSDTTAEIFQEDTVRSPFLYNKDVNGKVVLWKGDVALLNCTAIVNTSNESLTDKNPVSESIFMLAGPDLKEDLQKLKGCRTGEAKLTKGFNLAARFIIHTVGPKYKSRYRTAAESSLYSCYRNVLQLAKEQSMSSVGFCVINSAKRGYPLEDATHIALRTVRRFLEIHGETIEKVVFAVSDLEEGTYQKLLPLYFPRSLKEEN

SFV macro (nsP3) = molecular target: T2, SFV macro (nsP3) (Semliki forest virus, UniProt P08411); assay type: binding
T2 sequence (P08411 1337-1503 limits assumed): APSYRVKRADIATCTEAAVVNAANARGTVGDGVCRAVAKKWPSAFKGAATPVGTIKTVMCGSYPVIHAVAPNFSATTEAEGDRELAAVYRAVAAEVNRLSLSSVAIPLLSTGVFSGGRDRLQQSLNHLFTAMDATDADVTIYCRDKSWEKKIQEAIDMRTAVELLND

MDO1 G182Y = molecular target: T3, MDO1 G182Y (Homo sapiens, UniProt Q9BQ69, G182Y); assay type: binding; details: to MDO1 G182Y; ITC at 30 °C; NB, nonbinding
T3 sequence (Q9BQ69 83-325 G182Y): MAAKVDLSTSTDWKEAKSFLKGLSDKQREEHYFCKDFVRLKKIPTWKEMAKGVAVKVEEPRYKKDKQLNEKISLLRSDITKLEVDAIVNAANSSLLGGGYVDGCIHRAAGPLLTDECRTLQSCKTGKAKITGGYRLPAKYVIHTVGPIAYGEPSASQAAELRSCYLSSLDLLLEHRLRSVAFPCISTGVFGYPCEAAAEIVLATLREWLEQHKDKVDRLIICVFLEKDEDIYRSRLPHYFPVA

MDO1 G270Y = molecular target: T4, MDO1 G270Y (Homo sapiens, UniProt Q9BQ69, G270Y); assay type: binding; details: to MDO1 G270Y; ITC at 30 °C; NB, nonbinding
T4 sequence (Q9BQ69 83-325 G270Y): T3 sequence (Q9BQ69 83-325 G182Y) with Y100G, G188Y

HEV macro = molecular target: T5, HEV macro (Hepatitis E virus genotype 1, UniProt P29324); details: read-out: affinity for ADP-ribose, previously shown; cited from earlier work
T5 sequence (P29324 775-960): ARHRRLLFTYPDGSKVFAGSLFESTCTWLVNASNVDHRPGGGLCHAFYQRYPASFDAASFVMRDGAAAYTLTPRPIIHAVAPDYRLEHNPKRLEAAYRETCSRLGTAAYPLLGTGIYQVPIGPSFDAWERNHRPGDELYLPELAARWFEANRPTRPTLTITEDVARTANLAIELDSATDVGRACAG

ADP-ribose
ADP-ribose binding, Kd (GDAP2): completely inactive
ADP-ribose binding (SFV macro (nsP3); SFV macro (167-aa and 328-aa forms), ITC in the presence of 500 mM NaCl): no ADP-ribose binding was detected
ADP-ribose binding, Kd (SFV macro (nsP3); […], ITC at 30 °C, NB, nonbinding): unable to detect the binding
ADP-ribose binding, Kd (MDO1 G182Y): inactivated ADP-ribose binding
ADP-ribose binding, Kd (MDO1 G270Y): inactivated ADP-ribose binding
Kd (HEV macro): > 50 µM

Source: PMC7094737 (Journal of Molecular Biology, 2008)
